These are literature values, as cited in patent US20240166770A1, “COMPOSITIONS AND METHODS FOR INHIBITION OF CELL-PENETRATING ANTIBODIES” (Yale University, priority 2019, published 2024).

By UniProt entry, the sequences of proteins in these tests, tags left out.
UniProt Q7RTT9, whole entry: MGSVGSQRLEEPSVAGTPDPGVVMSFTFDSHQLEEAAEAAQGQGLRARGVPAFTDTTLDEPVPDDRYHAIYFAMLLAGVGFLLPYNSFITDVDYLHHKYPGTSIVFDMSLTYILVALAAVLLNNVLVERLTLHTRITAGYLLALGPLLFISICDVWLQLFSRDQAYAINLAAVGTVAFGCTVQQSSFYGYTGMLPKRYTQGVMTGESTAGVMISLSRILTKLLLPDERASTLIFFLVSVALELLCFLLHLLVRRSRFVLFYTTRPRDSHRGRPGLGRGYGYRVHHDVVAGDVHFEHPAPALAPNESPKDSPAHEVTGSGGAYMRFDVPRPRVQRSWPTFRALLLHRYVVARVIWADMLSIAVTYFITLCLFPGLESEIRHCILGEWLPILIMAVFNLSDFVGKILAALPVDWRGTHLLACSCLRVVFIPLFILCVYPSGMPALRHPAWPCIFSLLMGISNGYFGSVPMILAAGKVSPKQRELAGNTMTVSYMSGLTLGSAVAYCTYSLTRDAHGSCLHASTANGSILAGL
UniProt Q99808, whole entry: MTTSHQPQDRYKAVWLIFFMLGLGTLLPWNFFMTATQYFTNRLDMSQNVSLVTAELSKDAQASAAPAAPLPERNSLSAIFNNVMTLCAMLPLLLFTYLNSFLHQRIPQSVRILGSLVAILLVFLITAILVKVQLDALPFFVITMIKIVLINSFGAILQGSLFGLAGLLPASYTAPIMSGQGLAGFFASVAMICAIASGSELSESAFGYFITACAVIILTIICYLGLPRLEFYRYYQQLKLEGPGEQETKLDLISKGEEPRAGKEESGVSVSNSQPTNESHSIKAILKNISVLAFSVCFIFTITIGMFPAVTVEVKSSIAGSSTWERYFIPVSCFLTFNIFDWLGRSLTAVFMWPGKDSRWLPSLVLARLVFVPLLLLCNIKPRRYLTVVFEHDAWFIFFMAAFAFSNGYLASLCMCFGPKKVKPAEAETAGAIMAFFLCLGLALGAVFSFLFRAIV
UniProt Q14542, whole entry: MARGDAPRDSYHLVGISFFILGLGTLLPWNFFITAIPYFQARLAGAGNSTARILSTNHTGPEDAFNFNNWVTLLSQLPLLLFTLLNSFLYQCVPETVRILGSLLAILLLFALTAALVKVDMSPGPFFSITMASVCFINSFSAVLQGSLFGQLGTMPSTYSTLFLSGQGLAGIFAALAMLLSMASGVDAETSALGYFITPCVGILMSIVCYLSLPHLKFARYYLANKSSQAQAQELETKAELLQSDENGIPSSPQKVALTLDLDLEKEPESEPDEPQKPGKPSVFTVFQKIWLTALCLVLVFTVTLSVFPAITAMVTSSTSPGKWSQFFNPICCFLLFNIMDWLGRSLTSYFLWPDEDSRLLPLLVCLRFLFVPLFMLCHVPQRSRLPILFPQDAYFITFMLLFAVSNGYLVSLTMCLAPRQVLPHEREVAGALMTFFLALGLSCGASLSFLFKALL

By IC50 is commonly meant the midpoint of a concentration-inhibition curve.

One series concerns the target hENT4 (Homo sapiens, UniProt Q7RTT9). To be noted: read-out: hENT4 IC50, cited from earlier work.
For a further series, the target named is hENT1 (Homo sapiens, UniProt Q99808). To be noted: read-out: hENT1 IC50, cited from earlier work.
The next series deals with hENT2 (Homo sapiens, UniProt Q14542). The note with it: read-out: hENT2 IC50, cited from earlier work.
The mark [1] stands for this setting: Table 2, opening chain analogues.
[2] abbreviates: Table 3, free hydrogen on the nitrogen of 4- and 8-position substituents.
Setting [3] is: Table 1, different ring systems at the 4- and 8-positions.

Where two headings read alike, the source gives them in different places.

`CC(C)CN(CC(C)C)c1nc(NCCO)nc2c(N(CC(C)C)CC(C)C)nc(NCCO)nc12`: the IC50 on hENT4 (setting [1]) is 0.0744 µM.
For the molecule `CC(C)(C)Nc1nc(NCCO)nc2c(NC(C)(C)C)nc(NCCO)nc12`, the IC50 on hENT4 (setting [2]) was 3.27 µM; on hENT1 (setting [2]), 6.54 µM.
As to `CCCCCNc1nc(NCCO)nc2c(NCCCCC)nc(NCCO)nc12`, the IC50 on hENT4 (setting [2]) is 3.07 µM.
In the case of `CCCN(CCC)c1nc(NCCO)nc2c(N(CCC)CCC)nc(NCCO)nc12`, the IC50 was 0.0977 µM on hENT4 (setting [1]) and 7.46 µM on hENT1 (setting [1]).
In the case of `CCCNc1nc(NCCO)nc2c(NCCC)nc(NCCO)nc12`, the IC50 at hENT4 (setting [2]) was 10.1 µM; at hENT1 (setting [2]) it was 3.88 µM.
On to `CCC(C)(C)Nc1nc(NCCO)nc2c(NC(C)(C)CC)nc(NCCO)nc12`, for which the results for the IC50 on hENT4 (setting [2]) and at hENT1 (setting [2]) were 1.34 µM and 2.61 µM, respectively.
Consider `CC(C)Nc1nc(NCCO)nc2c(NC(C)C)nc(NCCO)nc12`, for which the IC50 on hENT4 (setting [2]) is 11.6 µM; on hENT1 (setting [2]), 5.87 µM.
As for `CC(C)CNc1nc(NCCO)nc2c(NCC(C)C)nc(NCCO)nc12`, the IC50 at hENT2 (setting [2]) was 1.49 µM; on hENT4 (setting [2]), 8.66 µM; at hENT1 (setting [2]) it was 0.784 µM.
As to `CC(C)CCNc1nc(NCCO)nc2c(NCCC(C)C)nc(NCCO)nc12`, the results for the IC50 at hENT4 (setting [2]) and at hENT1 (setting [2]) were 3.76 µM and 1.17 µM, respectively.
On to `OCCNc1nc(N2CCCCCCCC2)c2nc(NCCO)nc(N3CCCCCCCC3)c2n1`, for which the results for the IC50 on hENT2 (setting [3]) and on hENT4 (setting [3]) were 1.39 µM and 0.513 µM, respectively.
Consider `COCCN(CCOC)c1nc(NCCO)nc2c(N(CCOC)CCOC)nc(NCCO)nc12`, for which the results for the IC50 at hENT2 (setting [1]), on hENT4 (setting [1]) and on hENT1 (setting [1]) were 8.06 µM, 80.4 µM and 4.22 µM, respectively.
As for `CCNc1nc(NCCO)nc2c(NCC)nc(NCCO)nc12`, the IC50 on hENT4 (setting [2]) is 38.5 µM.
As to `CCCCN(CCCC)c1nc(NCCO)nc2c(N(CCCC)CCCC)nc(NCCO)nc12`, the IC50 is 1.31 µM on hENT2 (setting [1]) and 0.871 µM at hENT4 (setting [1]).
On to `OCCNc1nc(N2CCCC2)c2nc(NCCO)nc(N3CCCC3)c2n1`, for which the IC50 on hENT4 (setting [3]) is 3.91 µM; on hENT1 (setting [3]), 0.116 µM.
Turning to `CCN(CC)c1nc(NCCO)nc2c(N(CC)CC)nc(NCCO)nc12`, the IC50 was 4.22 µM at hENT2 (setting [1]), 3.13 µM on hENT4 (setting [1]) and 0.613 µM at hENT1 (setting [1]).
Take `OCCNc1nc(N2C3CCCC2CC3)c2nc(NCCO)nc(N3C4CCCC3CC4)c2n1`: the 50% inhibitory concentration (IC50) on hENT4 (setting [3]) is 0.324 µM.
`OCCNc1nc(N2CCCCCC2)c2nc(NCCO)nc(N3CCCCCC3)c2n1`: the IC50 was 0.595 µM on hENT4 (setting [3]) and 0.466 µM on hENT1 (setting [3]).
Regarding `CCCCNc1nc(NCCO)nc2c(NCCCC)nc(NCCO)nc12`, the IC50 at hENT2 (setting [2]) is 2.2 µM; at hENT4 (setting [2]) it was 3.87 µM.
Regarding `OCCNc1nc(NC2CCCCC2)c2nc(NCCO)nc(NC3CCCCC3)c2n1`, the IC50 on hENT4 (setting [2]) is 65.3 µM.
